Values quoted from earlier work as cited in patent publication US9095653B2, “Method for the timed dosage of medicaments” (BAYER INTELLECTUAL PROPERTY GMBH, priority 2004, dated 2015).

Settings: cited from earlier work

SMILES: Cn1c(=O)c2[nH]cnc2n(C)c1=O [Theophylline]
- plasma concentration above which risk of undesired side-effects (nausea, trembling, accelerated heart rate) increases: > 20000 ng/mL
